Experiments:
[1] = target: T1, purified recombinant mouse ART1 (mouse, UniProt Q60935 23-290); assay: SPR, Biacore 4000
T1 construct: Produced in HEK293 cells and purified; also called moART1; murine ART1
T1 sequence: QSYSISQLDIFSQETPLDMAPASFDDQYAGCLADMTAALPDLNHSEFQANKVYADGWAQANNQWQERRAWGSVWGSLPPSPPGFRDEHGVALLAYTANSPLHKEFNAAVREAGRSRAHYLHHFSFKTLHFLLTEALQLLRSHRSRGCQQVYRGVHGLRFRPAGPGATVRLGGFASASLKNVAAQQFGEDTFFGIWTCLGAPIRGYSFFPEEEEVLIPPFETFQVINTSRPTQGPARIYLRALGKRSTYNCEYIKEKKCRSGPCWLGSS
Procedure: (§1) Sequence identity of cynomolgus and mouse ART1 to human ART1 are 95% and 76% respectively. Studies were run on Biacore 4000 using a C1 sensor chip. Briefly, goat anti-human antibody was amine coupled to the C1 sensor chip using standard NHS/EDC (0.1/0.4 M) activation, followed by the antibody at 50 μg/mL in 10 mM NaAc pH 5.0 and a 1 M ethanolamine blocking step. All studies were done in PBS (NaCl 137 mM, KCl 2.7 mM, Na2HPO4 10 mM, and KH2PO4 1.8 mM @ pH 7.4). Data were collected at 25° C. For each binding cycle, the mAb was diluted to 50 nM, 10 nM, 3.3 nM and 1.1 nM and captured for 60 seconds. The dissociation phase was monitored for 10 minutes followed by a regeneration step. A new aliquot of antibody was captured for each binding cycle. The processed sensorgram data were globally fit using a simple 1:1 interaction model. […] Binding to mouse ART1 was about 2-fold lower relative to human ART (Table 11).

[2] = target: T2, ART3 (human ART1 paralog) (human, UniProt Q13508 27-362, limits assumed); assay: ELISA, paralog coated at 2.5 µg/mL, anti-human HRP secondary
T2 construct: Coated on the ELISA plate; The construct is not described
T2 sequence (looked up): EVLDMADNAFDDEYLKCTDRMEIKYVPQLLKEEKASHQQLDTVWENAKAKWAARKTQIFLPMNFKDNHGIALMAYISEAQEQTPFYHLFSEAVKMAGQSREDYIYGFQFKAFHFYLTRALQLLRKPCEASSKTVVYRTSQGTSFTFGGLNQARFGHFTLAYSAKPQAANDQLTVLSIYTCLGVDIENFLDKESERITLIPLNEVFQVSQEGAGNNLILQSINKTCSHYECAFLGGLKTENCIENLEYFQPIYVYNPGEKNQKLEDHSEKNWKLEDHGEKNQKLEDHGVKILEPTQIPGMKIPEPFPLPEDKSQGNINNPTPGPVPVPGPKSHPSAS
Procedure: (§2) FIG. 33. Binding of TDI-Y-009 (22C12 hLC1 IgG4) to ART1 and ART1 paralogs. Bound antibody was detected through colorimetric reaction mediated by the HRP-conjugated secondary antibody reagent.
(§3) To assess selectivity of TDI-Y-009, binding to ART1 paralogs (ART3, ART4, ART5) was performed by ELISA. Briefly, ART1 or the paralogs were plated on a high binding ELISA plate at 2.5 μg/mL in 1×PBS and incubated o/n at 4° C. with shaking. After blocking, 1:5 serial dilutions of TDI-Y-009 mAb were added to the plate and incubated at RT for 90′. After washing, a 1:12,000 dilution of a goat anti-human secondary HRP labeled mAb was then added and incubated at RT for 1 hour before washing, adding the TMB substrate and reading out absorbance at 450 nm following color development and reaction quenching with acid.

[3] = target: T3, ART4 (human ART1 paralog) (human, UniProt Q93070 47-285, limits assumed); assay: as above
T3 construct: Coated on the ELISA plate; The construct is not described
T3 sequence (looked up): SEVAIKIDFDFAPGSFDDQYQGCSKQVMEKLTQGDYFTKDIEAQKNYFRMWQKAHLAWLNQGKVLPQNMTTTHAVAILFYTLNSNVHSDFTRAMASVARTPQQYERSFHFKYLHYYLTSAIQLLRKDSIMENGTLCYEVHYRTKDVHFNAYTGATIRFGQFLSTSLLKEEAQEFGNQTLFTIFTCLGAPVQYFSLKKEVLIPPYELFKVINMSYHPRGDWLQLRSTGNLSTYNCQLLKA
Procedure: as §2, §3

[4] = target: T4, ART5 (human ART1 paralog) (human, UniProt Q96L15 23-291, limits assumed); assay: as above
T4 construct: Coated on the ELISA plate; The construct is not described
T4 sequence (looked up): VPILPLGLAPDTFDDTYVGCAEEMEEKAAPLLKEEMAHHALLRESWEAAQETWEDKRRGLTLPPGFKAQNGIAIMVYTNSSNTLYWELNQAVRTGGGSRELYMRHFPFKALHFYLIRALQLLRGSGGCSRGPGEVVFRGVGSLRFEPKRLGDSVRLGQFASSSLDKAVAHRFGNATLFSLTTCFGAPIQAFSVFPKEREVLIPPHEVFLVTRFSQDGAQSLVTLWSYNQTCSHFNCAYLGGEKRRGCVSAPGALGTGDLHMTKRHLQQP
Procedure: as §2, §3

[5] = target: T5, purified recombinant human ART1 (human, UniProt P52961 23-295); assay: binding affinity to human ART1 (summary table; Biacore per Table 11)
T5 construct: Produced in HEK293 cells and purified; also called huART1; human ADP-ribosyltransferase 1
T5 sequence: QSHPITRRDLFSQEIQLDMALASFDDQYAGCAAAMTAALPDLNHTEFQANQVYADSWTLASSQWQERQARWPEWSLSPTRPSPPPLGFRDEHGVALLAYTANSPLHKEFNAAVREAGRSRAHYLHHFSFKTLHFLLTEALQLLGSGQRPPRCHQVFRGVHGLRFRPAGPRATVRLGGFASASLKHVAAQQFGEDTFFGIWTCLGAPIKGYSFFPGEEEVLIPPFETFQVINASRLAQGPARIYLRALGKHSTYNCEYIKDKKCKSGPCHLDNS
Procedure: as §1

[6] = target: T1, purified recombinant mouse ART1; assay: cross-reactivity to mouse ART1 (summary table; Biacore per Table 11)
Procedure: as §1

[7] = target: T6, ART1 over-expressed on KP1 cells (KP1-ART1^OE); assay: flow cytometry on ART1 over-expressing KP1 cells, anti-human IgG Fc detection
T6 construct: whole, on cells; The host cells are murine; also called KP1-ART1OE cells; ART1 over-expressing KP1 cells
Procedure: FIG. 34. Binding of the 22C12 hLC1 IgG4 (TDI-Y-009) antibody to ART1 over-expressing KP1 cells.
Briefly, KP1-ART1^OE or KP1-ART1 knockdown cells were seeded on plates at 100,000 cells/well. Test antibodies starting at 100 μg/mL were serially diluted 1:5 then added to cells and incubated for 30 minutes on ice followed by washes. Cells were then stained with an anti-human IgG Fc and incubated for 30 minutes on ice followed by washes. Cells were resuspended in Flow buffer containing 1000× diluted SYTOX green dead stain and plates were read on Cytoflex flow cytometer. Dose-responsive binding to KP1-ART1^OE cells by TDI-Y-009 was observed (FIG. 34), but not to KP1-ART1 knockdown cells (data not shown).

Cynomolgus ART1 [8] = target: T7, Cynomolgus ART1 (cynomolgus, UniProt A0A2K5WCR3 23-295); assay: cross-reactivity to cynomolgus ART1 (summary table; Biacore per Table 11)
T7 construct: Analyte in Biacore; The construct is not described
T7 sequence: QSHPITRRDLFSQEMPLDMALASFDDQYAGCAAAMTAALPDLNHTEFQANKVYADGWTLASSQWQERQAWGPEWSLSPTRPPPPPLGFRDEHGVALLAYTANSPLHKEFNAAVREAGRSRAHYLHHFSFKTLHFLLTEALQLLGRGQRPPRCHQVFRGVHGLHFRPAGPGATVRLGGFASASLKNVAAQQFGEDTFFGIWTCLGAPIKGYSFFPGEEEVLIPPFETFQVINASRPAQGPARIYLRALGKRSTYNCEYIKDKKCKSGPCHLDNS
Procedure: as §1

[9] = target: T5, purified recombinant human ART1; assay: SPR, Biacore 4000, C1 chip, mAb captured by goat anti-human antibody, 25 °C, 1:1 model
Procedure: as §1

[10] = target: T1, purified recombinant mouse ART1; assay: as above
Procedure: as §1

Cynomolgus ART1 [11] = target: T7, Cynomolgus ART1; assay: as above
Procedure: as §1

[12] = target: T5, purified recombinant human ART1; assay: ELISA, ART1 coated at 2.5 ug/mL, 1:5 dilutions of the antibody, HRP-labelled goat anti-human secondary, OD450
Procedure: as §3

B1: TDI-Y-009 (22C12 hLC1 IgG4) (antibody, V domains shown)
VH: QVTLKESGPVLVKPTETLTLTCTVSGFSLSNARMGVSWIRQPPGKALEWLAHIFSNDEKSYSTSLKSRLTISKDTSKSQVVLTMTNMDPVDTATYYCARIYGGDSWGYFDNWGQGTLVTVSS
VL: DIQLTQSPSFLSASVGDRVTITCRASSSVSYMHWYQQKPGTSPKRLIYDTSKLASGVPSRFSGSGSGTEYTLTISSLQPEDFATYYCQQWSSNPPTFGQGTKLEIKR
[1]
  fold lower binding relative to human ART1: ~2 fold
[2]
  binding result: no binding (tested: 1.3 µM (200 µg/mL))
[3]
  binding result: no binding (tested: 1.3 µM (200 µg/mL))
[4]
  binding result: no binding (tested: 1.3 µM (200 µg/mL))
[5]
  Kd: 1.36 nM
[6]
  Kd: 2.7 nM
[7]
  EC50: 4.4 nM
Cynomolgus ART1 [8]
  Kd: 1.46 nM
[9]
  Kd: 1.36 nM
  koff: 0.00016 s⁻¹
  kon: 120000 M⁻¹ s⁻¹
[10]
  Kd: 2.7 nM
  koff: 0.00033 s⁻¹
  kon: 120000 M⁻¹ s⁻¹
Cynomolgus ART1 [11]
  Kd: 1.46 nM
  koff: 0.00026 s⁻¹
  kon: 180000 M⁻¹ s⁻¹
[12]
  EC50 (read off the curve): ~0.04 µg/mL

Reference: US20250382381A1 (CORNELL UNIVERSITY, published 2025)
